Test results reported in patent US5654299A, “Aryl substituted heterocycles” (Zeneca Limited, priority 1993, dated 1997).

Amino acid sequences for entries named in this document (tags omitted).
UniProt P21452, whole entry: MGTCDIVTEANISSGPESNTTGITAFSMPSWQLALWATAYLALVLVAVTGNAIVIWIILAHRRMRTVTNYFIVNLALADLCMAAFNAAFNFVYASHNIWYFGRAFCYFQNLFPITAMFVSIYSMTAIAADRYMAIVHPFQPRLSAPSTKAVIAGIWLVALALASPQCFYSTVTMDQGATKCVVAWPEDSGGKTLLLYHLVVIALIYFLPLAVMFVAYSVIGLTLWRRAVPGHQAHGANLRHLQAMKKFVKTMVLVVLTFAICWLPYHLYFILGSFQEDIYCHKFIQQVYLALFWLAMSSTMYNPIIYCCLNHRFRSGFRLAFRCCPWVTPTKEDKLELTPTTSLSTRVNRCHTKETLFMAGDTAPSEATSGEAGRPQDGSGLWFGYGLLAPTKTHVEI

Key:
[1] = biological target: human NK2 receptor (Homo sapiens, UniProt P21452); experiment: Neurokinin A (NKA) Receptor-binding Assay (Test A), 3H-NKA binding to MEL cell membranes (MELM); details: read-out: IC50 versus 3H-NKA binding to MELM; initial use of Test A; standard compound
[2] = test system: NK2; details: literature; cited from earlier work

For CSCC[C@@H]1NC(=O)[C@H](CC(C)C)NC(=O)CNC(=O)[C@H](Cc2ccccc2)NC(=O)[C@H](Cc2c[nH]c3ccccc23)NC(=O)[C@H](CCC(N)=O)NC1=O, the IC50 [1] is given as 0.03 µM and the “NK2 antagonism, selectivity in words” value [2] is given as “selective NK2 antagonist”.
